{
  "source": "ChEMBL document CHEMBL3085623",
  "about": "“Oridonin ring A-based diverse constructions of enone functionality: identification of novel dienone analogues effective for highly aggressive breast cancer by inducing apoptosis” (J Med Chem, 2013)",
  "data": [
    {"system": "NCI/ADR-RES", "experiment": "Growth inhibition of human MCF7/ADR cells after 48 hrs", "format": "functional, cell-based", "values": [
      {"smiles": "C=C1C(=O)[C@]23[C@H](O)[C@H]1CC[C@H]2[C@@]12CO[C@]3(O)[C@@H](O)[C@@H]1C(C)(C)C=CC2=O", "growth inhibition (GI)": "Dose-dependent effect"},
      {"smiles": "C=C1C(=O)[C@@]23[C@@H]4OC(C)(C)O[C@]25OC[C@]2(C=CC(=O)C(C)(C)[C@H]2[C@@H]5O)[C@@H]3CC[C@@H]14", "growth inhibition (GI)": "Dose-dependent effect"},
      {"smiles": "C=C1C(=O)[C@@]23[C@@H]4OC(C)(C)O[C@]25OC[C@]2(C(=O)C(C=O)=CC(C)(C)[C@H]2[C@@H]5O)[C@@H]3CC[C@@H]14", "growth inhibition (GI)": "Dose-dependent effect"},
      {"smiles": "C=C1C(=O)[C@@]23[C@@H]4OC(C)(C)O[C@]25OC[C@]2(C(=O)C=CC(C)(C)[C@H]2[C@@H]5O)[C@@H]3CC[C@@H]14", "growth inhibition (GI)": "Dose-dependent effect"}
    ]}
  ]
}
